Assay results from patent US8530494B2 (priority 2008, dated 2013).

Tested on: rats
Settings: rat, in vivo

CN1CC[C@]23c4c5ccc(O)c4O[C@H]2[C@@H](O)C=C[C@H]3[C@H]1C5 [Morphine, morphine]
carbon dioxide in blood samples: significantly increased
